The list is not random: actives were taken first. Their share in the collection is about 1.7%.
Dyrk1A ADPGlo: inhibitors of rat Dyrk1A kinase; actives 0.43% (n = 310,000); inhibition, % at 12.5 µM; AID 504441; ADP-Glo luminescence, NFATc1 peptide; in the data active = inhibition above about 50%;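 also: plate controls were vehicle with enzyme for no effect and no enzyme for full effect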
dFosB act-1: activators of mouse delta FosB homodimer; purified delta FosB, TAMRA-CDK5 oligo fluorescence polarization; percent of positive-control signal above neutral wells; activation, % at 25 µM; P13346; actives 0.99% (n = 340,000);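 active = mean activation above about 17%, with every replicate also reaching it, limit read from the data, passing the limit was not always enough; inconclusive = only one of the two conditions met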
UUG fidelity: modulators of start codon recognition fidelity in yeast; AID 602363; activity score, % at 18.7 µM; S. cerevisiae UUG-firefly luciferase reporter, luminescence/redox ratio; actives 0.13% (n = 350,000);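 active = replicate mean at a twofold rise or more, about +100% in these data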;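 note: firefly luciferase made from a UUG start codon reports start codon fidelity; reporter light over untreated wells divided by growth signal over untreated wells; some hits fall short of that in this replicate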
CAL PDZ FP-1: CAL PDZ (human) peptide binding inhibition; Q9HD26; purified CAL PDZ, TMR-peptide fluorescence polarization, 1 h; inhibition, % at 24.9 µM; actives 0.92% (n = 300,000); AID 602252;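 active = mean inhibition of at least 30% with at least half of replicates also reaching 30%; inconclusive = no clear call, values can overlap the other calls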;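 also: 0% = DMSO neutral control and 100% = excess unlabeled competitor peptide PRC23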
CDK5 p35 inh: blocks human CDK5/p35 kinase activity. Q00535+Q15078. Recombinant CDK5/p35, ADP-Glo luminescence, 60 min. inhibition, % at 10 µM. actives 0.01% (n = 330,000). AID 488839;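 active = highest replicate inhibition of at least 50% and at least 75% of replicates reaching 50%; inconclusive = only one of the two criteria met; inactive = both criteria failed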;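 also: plate controls were DMSO neutral control for no effect and GW8510 at 10 µM for full effect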
CAL PDZ FP-2: blocks peptide binding to human CAL PDZ domain; purified CAL PDZ, TMR-peptide fluorescence polarization, 1 h; inhibition, % at 20 µM; Q9HD26; actives 0.02% (n = 330,000);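 active = highest replicate inhibition of at least 40%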;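 also: plate controls were DMSO neutral control wells for no effect and unlabeled competitor peptide control wells for full effect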
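System: purified tagged CAL PDZ domain construct (CerCALP). Schedule: 1 h incubation at room temperature before polarization reading. Medium: 25 mM sodium phosphate pH 7.4, 150 mM NaCl, TCEP, IgG, Thesit. Read-out: percent inhibition from loss of millipolarization. Measured by: FP readout, S and P plane fluorescence. Probe or stimulus: fluorescent TMR peptide probe.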
dFosB act-2: enhances mouse delta FosB homodimer binding to DNA; shares compounds with dFosB act-1; purified delta FosB, TAMRA-CDK5 oligo fluorescence polarization; normalised: neutral wells 0, positive control 100; activation, % at 24.9 µM; 2,400 tested, under 10 active;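 active = highest replicate activation at or above 34% and every replicate reaching that threshold; inconclusive = meets only one of the two criteria; inactive = meets neither criterion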;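 also: higher polarization means more probe DNA bound by delta FosB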
Numbers without * were called inactive; ? = inconclusive; nt = not tested or not shown.

1	CCCNC(=O)C[C@H]1CC[C@@H]2[C@H](COc3ccc(NC(=O)c4cc(F)cc(F)c4)cc3C(=O)N2C)O1
2	C[C@@H]1CN([C@@H](C)CO)C(=O)c2cc(-c3ccccc3F)cnc2O[C@@H]1CN(C)C(=O)C1CCOCC1
3	CCc1ccc(/C=C2/Sc3ccccc3N(CC(=O)NCCCN3CCOCC3)C2=O)cc1
4	O=C(CN1C(=O)/C(=C/c2ccc(C(F)(F)F)cc2)Sc2ccccc21)NCCCN1CCOCC1
5	COc1ccccc1/C=C1\SC(=O)N(CCC(=O)NNC(=O)c2ccccc2Cl)C1=O
6	C[C@H]1CN([C@@H](C)CO)C(=O)c2cc(NC(=O)NC3CCCCC3)ccc2O[C@H]1CN(C)C
assay / compound | 1 | 2 | 3 | 4 | 5 | 6
CAL PDZ FP-1 | nt | nt | -3 | -2 | 1 | nt
CAL PDZ FP-2 | nt | nt | -2 | -3 | -2 | nt
dFosB act-2 | nt | nt | nt | 0 | 2 | nt
CDK5 p35 inh | nt | nt | -2 | 2 | 0 | nt
UUG fidelity | -13 | 8 | -10 | 14 | 1 | -7
Dyrk1A ADPGlo | nt | nt | -2 | 2 | 2 | nt
dFosB act-1 | nt | nt | -4 | 25* | 21* | nt

7	O=C(Cc1ccc(F)cc1)Nc1nc(-c2ccc(F)c(F)c2)cs1
8	O=C(CSc1ncnc2[nH]ncc12)Nc1nc(-c2ccc(F)c(F)c2)cs1
9	CO[C@@H]1CN(C)C(=O)c2ccc(NS(C)(=O)=O)cc2OC[C@@H](C)N(Cc2cccnc2)C[C@H]1C
10	CCN(CC)CCN(C(=O)c1ccc2c(c1)OCCO2)c1nc2c(Cl)cccc2s1
11	COc1ccc(Cl)c2sc(N(CCN(C)C)C(=O)CCS(=O)(=O)c3ccc(C)cc3)nc12
12	Cc1cc(C)c2sc(N(CCN(C)C)C(=O)CCS(=O)(=O)c3ccccc3)nc2c1
assay / compound | 7 | 8 | 9 | 10 | 11 | 12
CAL PDZ FP-1 | -6 | -4 | nt | -2 | -6 | -3
CAL PDZ FP-2 | -2 | -2 | nt | -3 | -4 | -4
dFosB act-2 | nt | -1 | nt | nt | 3 | 3
CDK5 p35 inh | -1 | 1 | nt | -2 | 2 | -2
UUG fidelity | -19 | nt | -9 | 4 | nt | 9
Dyrk1A ADPGlo | 3 | 2 | nt | 0 | 17 | -2
dFosB act-1 | -4 | 33* | nt | -7 | 82* | 21*

13	CCN(CC)CCN(C(=O)CCS(=O)(=O)c1ccccc1)c1nc2cc(C)cc(C)c2s1
14	CCN(CC)CCN(C(=O)c1ccc2c(c1)OCCO2)c1nc2cc(C)cc(C)c2s1
15	CCN(CC)CCN(C(=O)CCS(=O)(=O)c1ccccc1)c1nc2cc(OC)c(OC)cc2s1
16	COc1ccc(OC)c2sc(N(CCCN(C)C)C(=O)CCS(=O)(=O)c3ccccc3)nc12
17	O=C1C2C=C(Br)[C@H](C[C@@H]2OCCCCCCO)[C@@]12CO2
18	C[C@@H]1CN([C@@H](C)CO)C(=O)c2cccc(NS(=O)(=O)c3cccs3)c2O[C@H]1CN(C)S(=O)(=O)c1ccc(Cl)cc1
assay / compound | 13 | 14 | 15 | 16 | 17 | 18
CAL PDZ FP-1 | -2 | -2 | 0 | -3 | nt | nt
CAL PDZ FP-2 | 1 | -3 | -1 | -2 | nt | nt
dFosB act-2 | 6 | 4 | nt | nt | nt | nt
CDK5 p35 inh | -2 | -1 | 2 | 0 | nt | nt
UUG fidelity | 12 | -3 | 3 | 0 | -15 | -4
Dyrk1A ADPGlo | 1 | 1 | -10 | nt | nt | nt
dFosB act-1 | 43* | 30* | -5 | -4 | nt | nt

Next part; the last 4 above are carried over.
15	CCN(CC)CCN(C(=O)CCS(=O)(=O)c1ccccc1)c1nc2cc(OC)c(OC)cc2s1
16	COc1ccc(OC)c2sc(N(CCCN(C)C)C(=O)CCS(=O)(=O)c3ccccc3)nc12
17	O=C1C2C=C(Br)[C@H](C[C@@H]2OCCCCCCO)[C@@]12CO2
18	C[C@@H]1CN([C@@H](C)CO)C(=O)c2cccc(NS(=O)(=O)c3cccs3)c2O[C@H]1CN(C)S(=O)(=O)c1ccc(Cl)cc1
19	CCN(CC)CCN(C(=O)CCS(=O)(=O)c1ccccc1)c1nc2c(C)cc(C)cc2s1
20	COc1ccc(-c2cc(C(=O)Nc3cc(S(=O)(=O)N4CCOCC4)ccc3N3CCOCC3)c3ccccc3n2)cc1
21	CO[C@@H]1CN(C)C(=O)c2cc(NC(C)=O)ccc2OC[C@H](C)N(CC2CC2)C[C@H]1C
22	NC(=O)c1ccc(NC(=O)COC(=O)c2cc3ccccc3cc2O)cc1
23	O=C(COC(=O)c1cc2ccccc2cc1O)Nc1ccccc1F
24	CCc1cccc(C)c1NC(=O)COC(=O)CNS(=O)(=O)/C=C/c1ccccc1
assay / compound | 15 | 16 | 17 | 18 | 19 | 20 | 21 | 22 | 23 | 24
CAL PDZ FP-1 | 0 | -3 | nt | nt | 0 | nt | nt | nt | -1 | 0
CAL PDZ FP-2 | -1 | -2 | nt | nt | 2 | -1 | nt | 0 | 0 | 0
dFosB act-2 | nt | nt | nt | nt | -2 | 5 | nt | 1 | nt | nt
CDK5 p35 inh | 2 | 0 | nt | nt | 0 | -1 | nt | 0 | 0 | -1
UUG fidelity | 3 | 0 | -15 | -4 | 2 | nt | -12 | -13 | 3 | -5
Dyrk1A ADPGlo | -10 | nt | nt | nt | 2 | -5 | nt | 20 | 4 | -11
dFosB act-1 | -5 | -4 | nt | nt | 56* | 34* | nt | 36* | 6 | -6

25	NS(=O)(=O)c1ccc(NC(=O)COC(=O)c2cc3ccccc3cc2O)cc1
26	O=C(COC(=O)CNS(=O)(=O)/C=C/c1ccccc1)Nc1cccc2ccccc12
27	O=C(COC(=O)c1ccccc1O)Nc1cccc2ccccc12
28	C[C@@H]1CN([C@@H](C)CO)C(=O)Cc2cc(NC(=O)Nc3cccc4ccccc34)ccc2O[C@@H]1CN(C)C(=O)Nc1ccc2c(c1)OCO2
29	Cc1ccc(-c2nc(SCC(=O)c3c(N)n(C)c(=O)n(C)c3=O)n[nH]2)cc1
30	Cc1ccccc1-n1nnnc1SCC(=O)c1c(N)n(C)c(=O)n(C)c1=O
assay / compound | 25 | 26 | 27 | 28 | 29 | 30
CAL PDZ FP-1 | 1 | 2 | -4 | nt | nt | 32*
CAL PDZ FP-2 | -4 | -2 | 0 | nt | 0 | 1
dFosB act-2 | nt | -4 | -2 | nt | 0 | -1
CDK5 p35 inh | -1 | 1 | -1 | nt | 5 | 1
UUG fidelity | -11 | nt | -3 | 1 | nt | -13
Dyrk1A ADPGlo | 25 | -3 | nt | nt | 2 | -10
dFosB act-1 | 15 | 27* | 39* | nt | 32* | 23*

31	Cn1c(N)c(C(=O)CSc2nnnn2-c2ccccc2)c(=O)n(C)c1=O
32	CCc1ccc(-c2nc(SCC(=O)c3c(N)n(C)c(=O)n(C)c3=O)n[nH]2)cc1
33	CC(=O)N(C)C[C@H]1Oc2ncc(-c3cccnc3)cc2C(=O)N([C@H](C)CO)C[C@H]1C
34	CCC(=O)Nc1ccc(Cl)c(NC(=S)NC(=O)COc2ccccc2)c1
35	CCC(=O)NC(=S)Nc1ccc(NC(=O)COc2ccc(Cl)c(C)c2)cc1
36	CCC(=O)Nc1ccc(Cl)c(NC(=S)NC(=O)COc2ccc(Cl)cc2)c1
assay / compound | 31 | 32 | 33 | 34 | 35 | 36
CAL PDZ FP-1 | -3 | -5 | nt | 14 | -2 | nt
CAL PDZ FP-2 | 1 | 8 | nt | 0 | 1 | -2
dFosB act-2 | nt | nt | nt | ? | nt | -1
CDK5 p35 inh | -1 | 0 | nt | -1 | -1 | 0
UUG fidelity | -10 | -22 | -9 | nt | nt | nt
Dyrk1A ADPGlo | -1 | 0 | nt | 1 | -1 | -7
dFosB act-1 | 14 | -4 | nt | 35* | -13 | 55*

37	C[C@H](CO)N1C[C@H](C)[C@@H](CN(C)S(=O)(=O)c2cccs2)Oc2ccc(NC(=O)CCN3CCOCC3)cc2CC1=O
38	O=C(CSc1nnnn1-c1ccccc1)Nc1ncc(Cc2ccccc2Cl)s1
39	O=c1cc(/N=C/c2coc3c(ccc4ccccc43)c2=O)[nH]c(=S)[nH]1
40	COc1ccc(Cl)cc1C(=O)NC(=S)Nc1cc(-c2nc3ccccc3[nH]2)ccc1C
41	COc1ccc(Cl)cc1C(=O)NC(=S)Nc1nc(C)cc(C)n1
42	Cc1cccc(S(=O)(=O)N2CCCCN3[C@H](CO)[C@H](c4ccc(C#C[C@@H](C)O)cc4)[C@@H]3C2)c1
43	CCOc1ccc(-n2c([S-])c(C(=O)Nc3ccc(S(=O)(=O)N4CCOCC4)cc3)[n+]3cc(C(N)=O)ccc23)cc1
assay / compound | 37 | 38 | 39 | 40 | 41 | 42 | 43
CAL PDZ FP-1 | nt | -3 | -2 | 6 | -1 | nt | -2
CAL PDZ FP-2 | nt | -2 | -3 | -1 | -1 | nt | -5
dFosB act-2 | nt | 0 | -1 | 2 | nt | nt | 2
CDK5 p35 inh | nt | 0 | -2 | 0 | -1 | nt | 1
UUG fidelity | 14 | nt | nt | -17 | -25 | 6 | nt
Dyrk1A ADPGlo | nt | 2 | 1 | -1 | -1 | nt | 2
dFosB act-1 | nt | 39* | 43* | 36* | -11 | nt | 20*
